The values that follow come from patent publication US8703784B2, “Substituted pyrazolo[1,5-a]pyrido[3.2-e]pyrimidin-6-one inhibitors of mammalian target of rapamycin” (Merck Sharp & Dohme Corp., priority 2010, dated 2014).

This test has as its target mTOR enzyme (Homo sapiens, UniProt P42345). Nature of the test: mTOR Kinase Assay. The following applies: read-out: mTOR Activity; 5 μM ATP, 0.1 μM GSTS6K substrate; tested form: 2HCl. As to the method:
The mTOR assay buffer contains 10 mM hepes (pH 7.4), 50 mM NaCl, 100 μg/ml BSA, 50 mM B-glycerophosphate, 10 mM MnCl2 and 0.5 mM DTT. 20 ng of mTOR enzyme is preincubated with the compound for 10 minutes. 5 μM ATP and 0.1 μM GSTS6K is added. The reaction is incubated for one hour at 30° C. Anti phospho p70S6K (about 1.7 ng/well) and anti GSTXL665 (1:1 Ratio with the substrate GSTS6K) are added after incubating. The plates are read at least 2 hours after adding the anti phospho p70S6K and the anti GSTXL665.
Dose-response curves were plotted from inhibition data generated, each in duplicate, from 8 point serial dilutions of inhibitory compounds. Concentration of compound was plotted against % kinase activity, calculated by CPM of treated samples divided by CPM of untreated samples. To generate IC50 values, the dose-response curves were then fitted to a standard sigmoidal curve and IC50 values were derived by nonlinear regression analysis.

Regarding `CC(NC(=O)C(C)(CO)CO)c1nc2c(-c3cnc4ccc(F)cc4c3)cnn2c2c1C(=O)CCN2` (stereo not shown), the IC50 was in the range of 10 to 100 nM.
